Experimental data taken from article PMC8950700 (Pharmaceuticals, 2022).

Experiment: In vivo safety study in mice (liver and kidney function, body weight)
Conditions: uninfected mice; compounds given as 3 doses, oseltamivir 50 mg/kg, zanamivir 20 mg/kg; vs 1X PBS

Row | Compound | effect on body weight (safety, Figure S2)
1 | CC(=O)N[C@H]1[C@H]([C@H](O)[C@H](O)CO)OC(C(=O)O)=C[C@@H]1N=C(N)N [zanamivir, reference compound] | did not affect body weight
2 | CC(=O)OC[C@H]1O[C@@H](OCc2cn(Cc3nc4ccccc4o3)nn2)[C@H](OC(C)=O)[C@@H](OC(C)=O)[C@H]1OC(C)=O [Compound 8b, (2R,3S,4S,5R,6R)-2-(Acetoxymethyl)-6-((1-(benzo[d]oxazol-2-ylmethyl)-1H-1,2,3-triazol-4-yl)methoxy)tetrahydro-2H-pyran-3,4,5-triyl Triacetate] | slight effect on body weight
3 | CC(=O)O[C@@H]1[C@@H](OC(C)=O)[C@H](OCc2cn(Cc3nc4ccccc4s3)nn2)OC[C@H]1OC(C)=O [Compound 9c, (2R,3R,4S,5R)-2-((1-(Benzo[d]thiazol-2-ylmethyl)-1H-1,2,3-triazol-4-yl)methoxy)tetrahydro-2H-pyran-3,4,5-triyl Triacetate] | did not affect body weight
4 | CCOC(=O)C1=C[C@H](N)C(NC(C)=O)[C@H](OC(CC)CC)C1 (some centres unmarked) [oseltamivir, reference compound] | slight effect on body weight
5 | CC(=O)O[C@@H]1[C@@H](OC(C)=O)[C@H](OCc2cn(Cc3nc4ccccc4[nH]3)nn2)OC[C@H]1OC(C)=O [Compound 9a, (2R,3R,4S,5R,)-2-((1-((1H-Benzo[d]imidazol-2-yl)methyl)-1H-1,2,3-triazol-4-yl)methoxy)tetrahydro-2H-pyran-3,4,5-triyl Triacetate] | did not affect body weight
